The results in this text go back to publication PMC4042406 (British journal of haematology, 2011).

Chains of the proteins cited; added tags and fusions are not shown. Lines headed by an entry give the natural chain unless they say otherwise; changes in a name come on top.
UniProt P50613: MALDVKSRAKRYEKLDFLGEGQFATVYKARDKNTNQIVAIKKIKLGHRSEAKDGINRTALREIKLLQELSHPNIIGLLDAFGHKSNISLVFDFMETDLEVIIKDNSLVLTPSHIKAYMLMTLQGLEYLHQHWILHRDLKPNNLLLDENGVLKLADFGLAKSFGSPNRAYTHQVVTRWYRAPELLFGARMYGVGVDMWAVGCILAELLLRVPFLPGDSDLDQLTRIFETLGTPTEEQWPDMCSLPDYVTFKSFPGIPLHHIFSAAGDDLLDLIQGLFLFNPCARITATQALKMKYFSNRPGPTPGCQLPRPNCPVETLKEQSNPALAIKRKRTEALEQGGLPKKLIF
UniProt Q00535, whole entry: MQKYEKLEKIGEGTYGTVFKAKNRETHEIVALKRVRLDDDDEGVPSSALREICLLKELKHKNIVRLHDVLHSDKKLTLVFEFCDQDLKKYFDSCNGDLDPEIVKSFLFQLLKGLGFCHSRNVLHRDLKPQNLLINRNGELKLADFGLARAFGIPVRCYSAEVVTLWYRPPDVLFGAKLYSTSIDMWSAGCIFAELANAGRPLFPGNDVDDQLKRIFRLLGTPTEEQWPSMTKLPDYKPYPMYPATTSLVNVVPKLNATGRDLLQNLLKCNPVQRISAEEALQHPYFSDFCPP
UniProt Q00526: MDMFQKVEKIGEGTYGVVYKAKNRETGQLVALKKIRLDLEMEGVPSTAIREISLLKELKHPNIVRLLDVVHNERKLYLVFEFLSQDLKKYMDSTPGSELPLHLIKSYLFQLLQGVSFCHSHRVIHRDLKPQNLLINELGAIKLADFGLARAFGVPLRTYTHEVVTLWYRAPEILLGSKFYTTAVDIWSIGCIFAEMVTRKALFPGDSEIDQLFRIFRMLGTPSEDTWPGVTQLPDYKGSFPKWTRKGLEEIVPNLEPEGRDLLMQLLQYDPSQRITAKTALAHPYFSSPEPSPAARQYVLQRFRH
UniProt P50750, whole entry: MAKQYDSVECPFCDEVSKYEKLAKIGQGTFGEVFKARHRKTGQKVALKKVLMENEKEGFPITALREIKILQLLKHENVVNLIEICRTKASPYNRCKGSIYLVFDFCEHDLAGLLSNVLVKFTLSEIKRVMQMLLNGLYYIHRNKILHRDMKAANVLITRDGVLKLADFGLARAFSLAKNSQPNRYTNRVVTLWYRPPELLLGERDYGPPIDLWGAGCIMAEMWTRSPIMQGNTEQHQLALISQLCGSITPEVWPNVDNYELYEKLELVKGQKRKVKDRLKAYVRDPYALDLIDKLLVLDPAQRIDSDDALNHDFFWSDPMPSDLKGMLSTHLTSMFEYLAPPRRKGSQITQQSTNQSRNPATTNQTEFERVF
UniProt Q00534, whole entry: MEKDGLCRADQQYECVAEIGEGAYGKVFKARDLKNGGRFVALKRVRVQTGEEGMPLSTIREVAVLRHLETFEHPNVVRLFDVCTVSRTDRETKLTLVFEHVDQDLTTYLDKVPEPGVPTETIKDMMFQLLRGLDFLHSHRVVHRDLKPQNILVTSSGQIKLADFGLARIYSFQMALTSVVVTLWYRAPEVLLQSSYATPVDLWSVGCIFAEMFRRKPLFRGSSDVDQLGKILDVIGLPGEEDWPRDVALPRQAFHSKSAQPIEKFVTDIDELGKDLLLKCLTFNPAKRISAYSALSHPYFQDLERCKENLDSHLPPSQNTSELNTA
UniProt P06493, whole entry: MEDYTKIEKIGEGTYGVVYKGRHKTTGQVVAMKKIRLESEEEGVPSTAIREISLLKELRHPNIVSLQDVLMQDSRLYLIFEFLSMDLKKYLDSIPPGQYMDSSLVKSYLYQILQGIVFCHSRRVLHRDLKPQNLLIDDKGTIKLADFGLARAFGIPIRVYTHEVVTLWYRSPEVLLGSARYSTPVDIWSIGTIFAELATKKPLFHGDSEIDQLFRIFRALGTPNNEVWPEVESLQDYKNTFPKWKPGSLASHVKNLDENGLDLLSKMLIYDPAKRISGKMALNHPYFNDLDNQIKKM

Assay [1] has as its target CDK7/cyclin H (Homo sapiens, UniProt P50613). The experiment in a line: Millipore KinaseProfilerXL kinase activity, dose titration. The assay is classed as biochemical. As to conditions: 5-log dose titration 0.001-10μM.
Assay [2] relates to MM.1S cells. Put plainly: Cell death commitment assay. As to conditions: 0.5 μM, 2-24 hrs, washout, additional 72 hrs drug-free. The assay is classed as cell-based, human.
Assay [3] addresses CDK5/p35 (Homo sapiens, UniProt Q00535). The experiment in a line: Millipore KinaseProfilerXL kinase activity, dose titration. As to conditions: 5-log dose titration 0.001-10μM. The assay is classed as biochemical.
The target in assay [4] is CDK3/cyclin E (Homo sapiens, UniProt Q00526). The description is as above. The assay is classed as biochemical. As to conditions: 5-log dose titration 0.001-10μM.
In assay [5] the target is CDK9/cyclin T1 (Homo sapiens, UniProt P50750). Described as above. The assay is classed as biochemical. As to conditions: 5-log dose titration 0.001-10μM.
Assay [6] deals with CDK6/cyclin D3 (Homo sapiens, UniProt Q00534). The description is as above. As to conditions: 5-log dose titration 0.001-10μM. The assay is classed as biochemical.
The target in assay [7] is CDK1/cyclin B (Homo sapiens, UniProt P06493). The description is as above. The assay is classed as biochemical. As to conditions: 5-log dose titration 0.001-10μM.
Assay [8] has as its target CDK5/p25 (Homo sapiens, UniProt Q00535). The assay is described as above. The assay is classed as biochemical. As to conditions: 5-log dose titration 0.001-10μM.

SMILES strings stand for the structures. Entries after “also recorded” stand apart in the source; their conditions may differ.

Take `CS(=O)(=O)N1CCC(NC(=O)c2[nH]ncc2NC(=O)c2c(Cl)cccc2Cl)CC1` [LCQ195]: the “in vitro kinase activity in dose titration” value in assay [1] is “active, although with higher IC50 values”; in assay [3], “active at sub-μM concentrations”; in assay [4], “active, although with higher IC50 values; also recorded: active at sub-μM concentrations”; in assay [5], “active, although with higher IC50 values; also recorded: active at sub-μM concentrations”; in assay [6], “active, although with higher IC50 values; also recorded: active at sub-μM concentrations”; in assay [7], “active at sub-μM concentrations”. In assay [8], the “in vitro kinase activity in dose titration” value is recorded as “active at sub-μM concentrations”. Also, the “duration of treatment resulting in commitment to death” value in assay [2] was below 24 h.
